The results in this text go back to patent US8980954B2, “Substituted cis- and trans-stilbenes as therapeutic agents” (STC.UNM, priority 2006, dated 2015).

In the test the test system is NF-κB. Description: Inhibition of the TNFα-induced activation of NF-κB, 293T/NF-κB-luc luciferase reporter cell assay. The format is cell-based. The settings on record: Homo sapiens, HEK-293T; 293T/NF-κB-luc cells, TNFα 20 ng/ml, 7 hours, triplicate; read-out: IC50 for inhibition of the TNFα-induced activation of NFκB. The protocol: The cells were maintained in Dulbecco's Modified Eagle's Medium (DMEM—high glucose containing 4 mM glutamine) supplemented with 10% fetal bovine serum (FBS), 1 mM sodium pyruvate, 100 units/ml penicillin, 100 μg/ml streptomycin and 100 μg/ml hygromycin (Gibco/Invitrogen, Carlsbad, Calif.) to maintain cell selection. […] The following day cells were fed fresh media 1 hour prior to treatment. […] Plate wells were gently washed with phosphate buffered saline, pH 7.4, and lysed with 1x passive lysis buffer (Promega, Madison, Wis.). The subsequent lysates were analyzed with the Luciferase Assay System (Promega) utilizing a TD-20/20 luminometer (Turner Designs, Sunnyvale, Calif.). The firefly luciferase relative light units were normalized to protein (mg/ml) with BCA™ Protein Assay Kit (Pierce, Rockford, Ill.) and standardized to percent of control (TNFα control).

Broadly, the IC50 is the midpoint of a concentration-inhibition curve. Regarding `C(=C\c1ccc2ccccc2c1)/c1ccccc1` [8e, (E)-2-Styrylnaphthalene], the IC50 is 1300 ± 300 nM.

Regarding `COc1ccc(/C=C/c2cccc(F)c2)cc1` [6n, (E)-3-Fluoro-4′-methoxystilbene], the IC50 turned out to be 1100 ± 600 nM.
